As a reminder, the IC50 is the concentration at which inhibition is half-maximal.

Chains of the proteins cited; added tags and fusions are not shown. Lines headed by an entry give the natural chain unless they say otherwise; changes in a name come on top.
UniProt P53341: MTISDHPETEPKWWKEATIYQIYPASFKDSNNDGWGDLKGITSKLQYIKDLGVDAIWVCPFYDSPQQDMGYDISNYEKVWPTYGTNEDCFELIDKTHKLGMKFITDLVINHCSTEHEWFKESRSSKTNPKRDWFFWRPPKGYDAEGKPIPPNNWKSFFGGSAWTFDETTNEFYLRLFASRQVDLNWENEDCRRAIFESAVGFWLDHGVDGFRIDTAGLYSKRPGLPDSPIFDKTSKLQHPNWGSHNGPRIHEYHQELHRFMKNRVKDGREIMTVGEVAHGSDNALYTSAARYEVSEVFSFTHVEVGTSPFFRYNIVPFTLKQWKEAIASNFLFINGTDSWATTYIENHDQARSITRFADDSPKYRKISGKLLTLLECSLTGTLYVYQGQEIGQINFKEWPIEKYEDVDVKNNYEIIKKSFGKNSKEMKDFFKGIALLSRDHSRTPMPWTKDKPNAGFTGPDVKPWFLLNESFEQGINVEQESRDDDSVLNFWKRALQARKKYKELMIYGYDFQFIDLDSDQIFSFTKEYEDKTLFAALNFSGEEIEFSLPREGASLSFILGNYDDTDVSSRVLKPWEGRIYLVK

One compound from US10500245B2, “Compositions for preventing and/or treating pathological conditions associated with alpha-glucosidase” (UNIVERSITE DE LA ROCHELLE, priority 2014, dated 2019) can be followed below.

The target of the assay is T1, recombinant alpha-glucosidase from S. cerevisiae (maltase) (Saccharomyces cerevisiae, UniProt P53341).
T1 construct: purchased Sigma G0660-750UN
The assay can be described thus: biochemical. The following applies: Table 2.

As to `OCC(CO)N[C@H]1C[C@](O)(CO)[C@@H](O)[C@H](O)[C@H]1O` [Voglibose, voglibose, reference compound], the IC50 (Inhibitory activity on α-glucosidase (IC50) in mg/ml) is 1 mM and the IC50 (Inhibitory activity on α-glucosidase (IC50) in mmol/l, enzyme 1.6 U/ml, p-NPG 20 mM, pH 6.8, 37° C.) came to 24.4 ± 0.47 mM.
